Results taken from US20250161419A1, “SERPIN PEPTIDES AND METHODS OF USING THE SAME” (SERPIN PHARMA, LLC, priority 2022, published 2025).

Experiments:
[1] = system: GFAP; assay: Immunohistochemistry of L4 DRGs two days after PNL, GFAP (satellite cell activation); type: in vivo, mouse; details: L4 DRG two days after PNL, vs vehicle
Protocol: (§1) Neuropathic pain model: Mice (n=30) were randomly assigned to two different groups: SP163M (2 μg/g; s.c. 100 μl) and vehicle (H20 s.c. 100 μl). Mice were treated 1 h prior to partial nerve ligation (PNL) and then daily at least 1 h prior to behavior testing for 2 weeks. PNL studies were performed as previously disclosed^59 and adapted for mice.^57 Male mice were anesthetized with 3% isoflurane (Vetone, USA) in 1.5 L/min oxygen (Praxair, USA) and maintained with 2.5% isoflurane. An incision was made along the long axis of the femur. […] Filaments were presented in a consecutive fashion either ascending or descending using the up-down method as previously disclosed^60 and modified for mice.^57,61 The filament that caused paw withdrawal 50% of the time (the 50% PWT) was determined. […]
(§2) Immunoblots of sciatic nerve: Sciatic nerves were harvested 2 days after PNL to identify early molecular and cellular changes. […] Nerves were lysed in RIPA buffer and equal amounts of protein (20 μg) from nerves lysates, as determined by BCA Protein Assay (Bio-Rad, Hercules, CA, USA), were subjected to 10% SDS-PAGE and electro-transferred to nitrocellulose membranes. […] Primary antibodies were detected with HRP-conjugated species-specific secondary antibodies (Cell Signaling Technology, Danvers, MA, USA; cat #7076S or 4S; 1:5000). […]

[2] = system: TLR4; assay: Immunoblot of injured sciatic nerve two days after PNL, TLR4; type: in vivo, mouse; details: vehicle greater than 2-fold increase
Protocol: as §1, §2

[3] = system: phospho-IkBa (Ser32); assay: TNFα induced phosphorylation of IκBα in HaCat cells (immunoblot); type: cell-based, human
Protocol: (§3) Cells were pretreated with either vehicle or SP163M (100 μg/ml). TSLP was measured in the supernatant via ELISA (p=0.0045 vs. vehicle treated Poly IC induced cells). FIG. 10B: HaCat cells treated as in FIG. 10A were analyzed via the CellTiter-Glo® Luminescent Cell Viability Assay by Promega. The percent change from untreated (no Poly IC) cells were compared between SP163M vs. vehicle treated poly IC induced control (p=0.0068). FIG. 10C: HaCat cells were insulted with TNFα and immunoblotted for phospho-IkBa (Ser32). GAPDH served as a loading control and signal normalization.
TNFα treatment led to phosphorylation of IκBα (inhibitor of nuclear factor kappa B), which then activated NFκB. Therefore, in a model of skin inflammation, SP163M shut down a key inflammatory pathway (FIG. 10C).

[4] = system: TSLP; assay: Poly IC induced TSLP in HaCat human keratinocytes (ELISA); type: cell-based; details: Poly IC 50 μg/ml 24 hours, SP163M 100 μg/ml, p=0.0045 vs vehicle
Protocol: as §3
In this model of dermal inflammation, SP163M decreased a key cytokine (TSLP) that controls allergic responses, and protected cells from death.

CCCC[C@H](NC(=O)[C@H](CC(C)C)NC(=O)[C@H](Cc1ccccc1)NC(=O)[C@@H](NC(=O)[C@H](Cc1ccccc1)NC(=O)[C@@H]1CCCN1C(=O)[C@H](CCCCN)NC(=O)[C@H](CC(N)=O)NC(=O)[C@H](Cc1ccccc1)NC(=O)[C@H](CCCCN)NC(=O)[C@@H](NC(C)=O)C(C)C)C(C)C)C(=O)N[C@H](C(=O)N[C@@H](CCC(=O)O)C(=O)N[C@@H](CCC(N)=O)C(=O)N[C@@H](CC(N)=O)C(=O)N[C@H](C(=O)N[C@@H](CCCCN)C(N)=O)[C@@H](C)O)[C@@H](C)CC [SP163M, Ac-VKFNKPFVFLNIeIEQNTK-NH2]
decrease in GFAP levels in DRGs (quantification of immunohistochemistry) [1]: 6 fold | TLR4 in injured sciatic nerve (densitometric analysis) [2]: completely blocked the upregulation of TLR4 | phosphorylation of IκBα by TNF-α [3]: inhibited the phosphorylation of IκBα by TNF-α | TSLP in supernatant [4]: decrease of both TSLP
